For one compound, IC50 results are on record in publication PMC6009985, “Structure–activity relationship investigation of benzamide and picolinamide derivatives containing dimethylamine side chain as acetylcholinesterase inhibitors” (Journal of Enzyme Inhibition and Medicinal Chemistry, 2017).

By UniProt entry, the sequences of proteins in these tests, tags left out. Residues count along the entry.
UniProt P06276, 29-602: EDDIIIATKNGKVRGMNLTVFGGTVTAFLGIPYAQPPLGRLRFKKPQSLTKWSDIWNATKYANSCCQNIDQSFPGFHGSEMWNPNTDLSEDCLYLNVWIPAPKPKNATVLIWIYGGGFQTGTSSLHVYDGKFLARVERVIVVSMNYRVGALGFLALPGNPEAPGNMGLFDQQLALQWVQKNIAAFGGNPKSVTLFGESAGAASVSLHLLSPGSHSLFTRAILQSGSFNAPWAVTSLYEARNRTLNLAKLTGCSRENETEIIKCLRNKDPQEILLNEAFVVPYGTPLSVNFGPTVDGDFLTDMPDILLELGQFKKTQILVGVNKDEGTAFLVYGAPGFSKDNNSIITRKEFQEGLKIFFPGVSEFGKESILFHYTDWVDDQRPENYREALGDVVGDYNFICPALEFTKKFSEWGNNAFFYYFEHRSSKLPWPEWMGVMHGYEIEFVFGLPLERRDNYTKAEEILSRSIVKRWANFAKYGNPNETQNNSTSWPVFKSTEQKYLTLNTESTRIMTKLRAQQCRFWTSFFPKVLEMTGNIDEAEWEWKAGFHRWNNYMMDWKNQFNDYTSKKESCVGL

This assay concerns the target BChE (Homo sapiens, UniProt P06276). The class given is biochemical. The settings on record: Ellman method, 30 °C, 25 min, pH 8.0; mean ± SD. The protocol: AChE/BChE activity assays were carried out by Ellman method with slight modification. Each compound was dissolved in Tween 80 and diluted with water to various concentrations immediately before use. The assay solution which contained 40 μL AChE/BChE, 100 μL acetylthiocholine iodide/S-butyrylthiocholine iodide, 2.76 ml Na2HPO4/NaH2PO4 buffer (pH 8.0, 0.1 M), and 100 μL tested compound solution with different concentrations were incubated at 30 °C for 25 min. Then, the reaction was terminated with 100 μL 20% sodium dodecylsulphate (SDS), then 100 μL 10 mM […] (DTNB) as chromogenic agent was added into the mixture. […] The IC50 values were calculated by Bliss method and expressed as Mean ± SD of the replicates.
For orientation: DTNB colorimetry detects thiols as they appear.

Broadly, the IC50 is the concentration needed to halve the response being measured. With `CCN(C)C(=O)Oc1cccc([C@H](C)N(C)C)c1` [Rivastigmine, reference compound], the IC50 was found to be 0.26 ± 0.08 µM.
